Laboratory results reported in US10287301B2 (Achillion Pharmaceuticals, Inc., priority 2015, dated 2019).
Read-outs that look alike come from different tables or passages of the source.

Amino acid sequences for entries named in this document (tags omitted). Residues count along the entry.
UniProt P00746, 26-253: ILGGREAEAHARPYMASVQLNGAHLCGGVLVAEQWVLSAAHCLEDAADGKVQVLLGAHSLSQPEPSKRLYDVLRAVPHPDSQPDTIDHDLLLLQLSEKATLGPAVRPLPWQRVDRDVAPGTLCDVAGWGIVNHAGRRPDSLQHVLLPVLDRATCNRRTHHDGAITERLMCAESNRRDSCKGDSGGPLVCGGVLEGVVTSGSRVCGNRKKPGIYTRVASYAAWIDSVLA

Molecular target: Human Factor D (Homo sapiens (Human), UniProt P00746)
Experiment: Human Factor D Assay
Format: biochemical
Protocol: Human Factor D (purified from human serum, Complement Technology, Inc.) at 80 nM final concentration was incubated with test compound at various concentrations for 5 minutes at room temperature in 50 mM Tris, 1M NaCl, pH 7.5. A synthetic substrate Z-L-Lys-SBzl and DTNB (Ellman's reagent) are added to final concentrations of 100 μM each. […] IC50 values are calculated by nonlinear regression of complement Factor D reaction rates as a function of test compound concentration.

[1] = Human Factor D 80 nM, substrate Z-L-Lys-SBzl, read-out: IC50
[2] = Table 3, Human Factor D 80 nM, substrate Z-L-Lys-SBzl, read-out: IC50 (Stars)

| SMILES | IC50 | also measured |
| --- | --- | --- |
| NC(=O)c1nn(CC(=O)N2C[C@H](F)C[C@H]2C(=O)Nc2cncc(Cl)c2)c2ccc(-c3ccnnc3)cc12 [Compound 67, 1-(2-((2S,4R)-2-(5-chloropyridin-3-ylcarbamoyl)-4-fluoropyrrolidin-1-yl)-2-oxoethyl)-5-(pyridazin-4-yl)-1H-indazole-3-carboxamide] | 1 to 10 µM | – |
| NC(=O)c1nn(CC(=O)N2C[C@H](F)C[C@H]2C(=O)Nc2nc(-c3ccccc3Cl)ns2)c2ccc(-c3ccnnc3)cc12 [Compound 114, 1-(2-((2S,4R)-2-(3-(2-chlorophenyl)-1,2,4-thiadiazol-5-ylcarbamoyl)-4-fluoropyrrolidin-1-yl)-2-oxoethyl)-5-(pyridazin-4-yl)-1H-indazole-3-carboxamide] | 1 to 10 µM | – |
| CC(=O)c1nn(CC(=O)N2C[C@H](F)C[C@H]2C(=O)Nc2cccc(Br)n2)c2ccc(-c3cnc(C)nc3)cc12 [Compound 165, (2S,4R)-1-(2-(3-acetyl-5-(2-methylpyrimidin-5-yl)-1H-indazol-1-yl)acetyl)-N-(6-bromopyridin-2-yl)-4-fluoropyrrolidine-2-carboxamide] | – | IC50 [1]: < 1 µM |
| CC(=O)c1cn(CC(=O)N2C[C@H](F)C[C@H]2C(=O)Nc2cccnc2Cl)c2ccc(-c3ccnnc3)cc12 [Compound 166, (2S,4R)-1-(2-(3-acetyl-5-(pyridazin-4-yl)-1H-indol-1-yl)acetyl)-N-(2-chloropyridin-3-yl)-4-fluoropyrrolidine-2-carboxamide] | 1 to 10 µM | – |
| CC(=O)c1cn(CC(=O)N2C[C@H](F)C[C@H]2C(=O)NC2CCN(c3ccn(C)n3)C2=O)c2ccc(-c3ccnnc3)cc12 (stereo partly drawn) [Compound 167, (2S,4R)-1-(2-(3-acetyl-5-(pyridazin-4-yl)-1H-indol-1-yl)acetyl)-4-fluoro-N-(1-(1-methyl-1H-pyrazol-3-yl)-2-oxopyrrolidin-3-yl)pyrrolidine-2-carboxamide] | 1 to 10 µM | – |
| Cc1[nH]nc(NC(=O)[C@@H]2C[C@@H](F)CN2C(=O)Cn2nc(C(N)=O)c3cc(-c4ccnnc4)ccc32)c1-c1ccccc1 [Compound 170, 1-(2-((2S,4R)-4-fluoro-2-(5-methyl-4-phenyl-1H-pyrazol-3-ylcarbamoyl)pyrrolidin-1-yl)-2-oxoethyl)-5-(pyridazin-4-yl)-1H-indazole-3-carboxamide] | 1 to 10 µM | – |
| CC(=O)c1cn(CC(=O)N2C[C@H](F)C[C@H]2C(=O)Nc2nn(C)c3c2CC(C)C(=O)N3)c2ccc(-c3ccnnc3)cc12 (stereo partly drawn) [Compound 171, (2S,4R)-1-(2-(3-acetyl-5-(pyridazin-4-yl)-1H-indol-1-yl)acetyl)-N-(1,5-dimethyl-6-oxo-4,5,6,7-tetrahydro-1H-pyrazolo[3,4-b]pyridin-3-yl)-4-fluoropyrrolidine-2-carboxamide] | 1 to 10 µM | – |
| Cc1c([C@@H](C)NC(=O)[C@@H]2C[C@@H](F)CN2C(=O)Cn2nc(C(N)=O)c3cc(-c4ccnnc4)ccc32)oc2ccc(F)cc12 [Compound 183, 1-(2-((2S,4R)-4-fluoro-2-((R)-1-(5-fluoro-3-methylbenzofuran-2-yl)ethylcarbamoyl)pyrrolidin-1-yl)-2-oxoethyl)-5-(pyridazin-4-yl)-1H-indazole-3-carboxamide] | – | IC50 [1]: > 10 µM |
| Cc1c([C@H](C)NC(=O)[C@@H]2C[C@@H](F)CN2C(=O)Cn2nc(C(N)=O)c3cc(-c4ccnnc4)ccc32)oc2ccc(F)cc12 [Compound 184, 1-(2-((2S,4R)-4-fluoro-2-((S)-1-(5-fluoro-3-methylbenzofuran-2-yl)ethylcarbamoyl)pyrrolidin-1-yl)-2-oxoethyl)-5-(pyridazin-4-yl)-1H-indazole-3-carboxamide] | 1 to 10 µM | – |
| CCCCCC(=O)NC1CCC(NC(=O)[C@@H]2C[C@@H](F)CN2C(=O)Cn2nc(C(C)=O)c3cc(-c4cnc(C)nc4)ccc32)CC1 (stereo partly drawn) [Compound 233, (2S,4R)-1-(2-(3-acetyl-5-(2-methylpyrimidin-5-yl)-1H-indazol-1-yl)acetyl)-4-fluoro-N-(4-hexanamidocyclohexyl) pyrrolidine-2-carboxamide] | 1 to 10 µM | – |
| NC(=O)c1nn(CC(=O)N2C[C@H](F)C[C@H]2C(=O)Nc2cccc(Br)n2)c2ccc(-c3[nH]nnc3-c3ncccn3)cc12 [Compound 252, 1-(2-((2S,4R)-2-(6-bromopyridin-2-ylcarbamoyl)-4-fluoropyrrolidin-1-yl)-2-oxoethyl)-5-(4-(pyrimidin-2-yl)-1H-1,2,3-triazol-5-yl)-1H-indazole-3-carboxamide] | 1 to 10 µM | – |
| CC(=O)c1nn(CC(=O)N2C[C@@H](F)C[C@H]2C(=O)Nc2cccc(Br)n2)c2ccc(-c3cnc(C)nc3)cc12 [Compound 253, (2S,4S)-1-(2-(3-acetyl-5-(2-methylpyrimidin-5-yl)-1H-indazol-1-yl)acetyl)-N-(6-bromopyridin-2-yl)-4-fluoropyrrolidine-2-carboxamide] | – | IC50 (Human Factor D assay of Example 8, Table 2, read-out: IC50): < 1 µM |
| CC(=O)c1nn(CC(=O)N2C[C@H](F)C[C@H]2C(=O)Nc2cccc(Br)c2C#N)c2ccc(-c3cnc(C)nc3)cc12 [Compound 280, (2S,4R)-1-(2-(3-acetyl-5-(2-methylpyrimidin-5-yl)-1H-indazol-1-yl)acetyl)-N-(3-bromo-2-cyanophenyl)-4-fluoropyrrolidine-2-carboxamide] | 1 to 10 µM | – |
| CC(=O)c1nn([C@H](F)C(=O)N2C[C@H](F)C[C@H]2C(=O)Nc2cccc(Br)n2)c2ccc(-c3cnc(C)nc3)cc12 [Compound 411, (2S,4R)-1-((R)-2-(3-acetyl-5-(2-methylpyrimidin-5-yl)-1H-indazol-1-yl)-2-fluoroacetyl)-N-(6-bromopyridin-2-yl)-4-fluoropyrrolidine-2-carboxamide] | 1 to 10 µM | – |
| CC(=O)c1nn([C@@H](F)C(=O)N2C[C@H](F)C[C@H]2C(=O)Nc2cccc(Br)n2)c2ccc(-c3cnc(C)nc3)cc12 [Compound 412, (2S,4R)-1-((S)-2-(3-acetyl-5-(2-methylpyrimidin-5-yl)-1H-indazol-1-yl)-2-fluoroacetyl)-N-(6-bromopyridin-2-yl)-4-fluoropyrrolidine-2-carboxamide] | – | IC50 [2]: < 1 µM |
| CC(=O)c1nn(CC(=O)N2C[C@@H]3C[C@@H]3[C@@H]2C(=O)Nc2cccc(Br)n2)c2ccc(-c3cnc(C)nc3)cc12 [Compound 414, (1S,2R,5R)-3-(2-(3-Acetyl-5-(2-methylpyrimidin-5-yl)-1H-indazol-1-yl)acetyl)-N-(6-bromopyridin-2-yl)-3-azabicyclo[3.1.0]hexane-2-carboxamide] | 1 to 10 µM | – |
| CC(=O)c1nn(CC(=O)N2C[C@H](F)CC2C(=O)Nc2cccc(Br)n2)c2ccc(-c3cnc(C)nc3)cc12 (some centres unmarked) [Compound 476] | – | IC50 [2]: > 10 µM |
| Cc1ccc(-c2ccc3c(c2)c(C(N)=O)cn3CC(=O)N2[C@@H]3CC[C@@H](C3)[C@H]2C(=O)Nc2cccc(C)n2)cn1 [Compound 490, 1-(2-((1R,3S,4S)-3-(6-Methylpyridin-2-ylcarbamoyl)-2-azabicyclo[2.2.1]heptan-2-yl)-2-oxoethyl)-5-(6-methylpyridin-3-yl)-1H-indole-3-carboxamide] | > 10 µM | – |
| CC(=O)c1cn(CC(=O)N2C[C@H](F)C[C@H]2CCNS(=O)(=O)c2ccccc2)c2ccc(-c3cnc(C)nc3)cc12 [Compound 510, N-(2-((2R,4R)-1-(2-(3-Acetyl-5-(2-methylpyrimidin-5-yl)-1H-indol-1-yl)acetyl)-4-fluoropyrrolidin-2-yl)ethyl)benzenesulfonamide] | 1 to 10 µM | – |
| CC(=O)c1nn(CC(=O)N2C[C@H](F)C[C@@H]2C(=O)Nc2cccc(Br)n2)c2ccc(-c3cnc(C)nc3)cc12 [Compound 517, (2R,4R)-1-(2-(3-acetyl-5-(2-methylpyrimidin-5-yl)-1H-indazol-1-yl)acetyl)-N-(6-bromopyridin-2-yl)-4-fluoropyrrolidine-2-carboxamide] | – | IC50 [2]: > 10 µM |
| CC(=O)c1nn(CC(=O)N2C[C@@H](F)C[C@@H]2C(=O)Nc2cccc(Br)n2)c2ccc(-c3cnc(C)nc3)cc12 [Compound 518, (2R,4S)-1-(2-(3-acetyl-5-(2-methylpyrimidin-5-yl)-1H-indazol-1-yl)acetyl)-N-(6-bromopyridin-2-yl)-4-fluoropyrrolidine-2-carboxamide] | – | IC50 [2]: > 10 µM |
| CCCCCOc1cccc(NC(=O)[C@@H]2C[C@@H](F)CN2C(=O)Cn2nc(C(C)=O)c3cc(-c4cnc(C)nc4)ccc32)n1 [Compound 519, (2S,4R)-1-(2-(3-Acetyl-5-(2-methylpyrimidin-5-yl)-1H-indazol-1-yl)acetyl)-4-fluoro-N-(6-(pentyloxy)pyridin-2-yl)pyrrolidine-2-carboxamide] | 1 to 10 µM | – |
| CC(=O)c1nn(CC(=O)N2CCC[C@H]2C(=O)Nc2cccc(C)n2)c2ccc(-c3cccnc3)cc12 [Compound 525, (S)-1-(2-(3-Acetyl-5-(pyridin-3-yl)-1H-indazol-1-yl)acetyl)-N-(6-methylpyridin-2-yl)pyrrolidine-2-carboxamide] | 1 to 10 µM | – |
| COc1ccc(-c2ccc3c(c2)c(C(C)=O)nn3CC(=O)N2CCC[C@H]2C(=O)Nc2cccc(C)n2)cn1 [Compound 543, (S)-1-(2-(3-Acetyl-5-(6-methoxypyridin-3-yl)-1H-indazol-1-yl)acetyl)-N-(6-methylpyridin-2-yl)pyrrolidine-2-carboxamide] | 1 to 10 µM | – |
| CC(=O)c1nn(CC(=O)N2CCC[C@H]2C(=O)Nc2cccc(C)n2)c2ccc(-c3cccc(C#N)c3)cc12 [Compound 544, (S)-1-(2-(3-Acetyl-5-(3-cyanophenyl)-1H-indazol-1-yl)acetyl)-N-(6-methylpyridin-2-yl)pyrrolidine-2-carboxamide] | 1 to 10 µM | – |
| CC(=O)c1nn(CC(=O)N2CCC[C@H]2C(=O)Nc2cccc(C)n2)c2ccc(-c3ccc(F)nc3)cc12 [Compound 545, (S)-1-(2-(3-Acetyl-5-(6-fluoropyridin-3-yl)-1H-indazol-1-yl)acetyl)-N-(6-methylpyridin-2-yl)pyrrolidine-2-carboxamide] | 1 to 10 µM | – |
